Reference: ChEMBL document CHEMBL4417637, “Sensitization of cancer cells to nampt inhibitors by nicotinic acid phosphoribosyltransferase neutralization” (2017)

Columns and labels:
[1] = molecular target: T1, Nicotinate phosphoribosyltransferase (Homo sapiens) (UniProt Q6XQN6); assay: Inhibition of NAPRT in human OVCAR5 cells assessed as potentiation of NAMPT inhibitor FK866-induced cytotoxicity by measuring reduction in cell viability at 300 uM to 1 mM incubated for 72 hrs by SRB assay; type: cell-based
T1 sequence (whole entry): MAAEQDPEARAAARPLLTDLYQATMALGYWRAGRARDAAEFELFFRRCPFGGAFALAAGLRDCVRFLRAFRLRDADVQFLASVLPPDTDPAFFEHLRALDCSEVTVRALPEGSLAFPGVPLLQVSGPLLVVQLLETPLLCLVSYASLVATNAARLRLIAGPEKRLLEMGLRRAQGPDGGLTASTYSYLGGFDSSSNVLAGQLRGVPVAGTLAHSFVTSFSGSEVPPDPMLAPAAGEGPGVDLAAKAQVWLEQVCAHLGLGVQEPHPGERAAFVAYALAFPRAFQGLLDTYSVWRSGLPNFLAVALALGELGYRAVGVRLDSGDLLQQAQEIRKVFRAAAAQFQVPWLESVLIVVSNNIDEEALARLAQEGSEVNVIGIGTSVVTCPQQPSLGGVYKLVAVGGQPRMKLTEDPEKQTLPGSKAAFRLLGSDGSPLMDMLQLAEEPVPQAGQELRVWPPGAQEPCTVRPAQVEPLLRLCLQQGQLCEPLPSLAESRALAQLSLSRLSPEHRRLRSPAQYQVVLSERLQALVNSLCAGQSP

[2] = molecular target: T1, Nicotinate phosphoribosyltransferase (Homo sapiens); assay: (§1) Inhibition of NAPRT in human Jurkat cells assessed as potentiation of NAMPT inhibitor FK866-induced apoptosis by measuring reduction in cell viability at 3.5 mM prer-incubated with IC50 level of FK866 for 48 hrs followed by compound addition and further incubated for 48 hrs by Annexin-V/7-AAD staining based flow cytometry
[3] = molecular target: T1, Nicotinate phosphoribosyltransferase (Homo sapiens); assay: as §1, with “ML2” for “Jurkat”
[4] = molecular target: T1, Nicotinate phosphoribosyltransferase (Homo sapiens); assay: as §1, with “NOMO” for “Jurkat”
[5] = molecular target: T1, Nicotinate phosphoribosyltransferase (Homo sapiens); assay: as §1, with “NB4” for “Jurkat”
[6] = molecular target: T1, Nicotinate phosphoribosyltransferase (Homo sapiens); assay: as §1, with “NAMALWA” for “Jurkat”
[7] = molecular target: T1, Nicotinate phosphoribosyltransferase (Homo sapiens); assay: as §1, with “Daudi” for “Jurkat”
[8] = molecular target: T1, Nicotinate phosphoribosyltransferase (Homo sapiens); assay: as §1, with “Raji” for “Jurkat”
[9] = molecular target: T1, Nicotinate phosphoribosyltransferase (Homo sapiens); assay: as §1, with “ARH77” for “Jurkat”
[10] = molecular target: T1, Nicotinate phosphoribosyltransferase (Homo sapiens); assay: as §1, with “RPMI8226” for “Jurkat”
[11] = molecular target: T1, Nicotinate phosphoribosyltransferase (Homo sapiens); assay: as §1, with “U266” for “Jurkat”

Measured: inhibition

CC(=O)Oc1ccccc1C(=O)O [ASPIRIN]
active: all assays above

Calls of active or inactive are those of the source.
